Laboratory results: EP0179751B1, “Ionophore polyether, process for its preparation and its use” (SANOFI, priority 1984, dated 1986)

System: flore ruménale
Assay: in vitro rumen flora fermentation, nitrogen use
Conditions: for fermentescibilité des sources protéiques: graine de lupin doux, tourteau d'arachide, tourteau de soya

| Compound | effets sur l'activité microbienne ou sur la production de gaz à partir d'azote protéique | quantité d'azote ammoniacal fixée par les bactéries (synthèse microbienne) | fermentescibilité des sources protéiques |
| --- | --- | --- | --- |
| nigéricine [reference compound] | effets négatifs | effet inhibiteur | diminue notablement |
| COC1CC(CC(O)CCC(C)C=C(C)C(=O)O)OC2(OC(C)(C3CCC(C)(C4OC(C5OC(O)(CO)C(C)CC5C)CC4C)O3)CC2C)C1C (stereo not shown) [abiérixine] |  |  | diminue notablement |
